Measurements published in patent US20090099157A1, “TETRAHYDRO-PYRAZOLO-PYRIDINE THIOETHER MODULATORS OF CATHEPSIN S” (priority 2007, published 2009).

The chains behind the UniProt entries cited, without tags or fusion partners. Residues count along the entry.
UniProt P25774, 115-331: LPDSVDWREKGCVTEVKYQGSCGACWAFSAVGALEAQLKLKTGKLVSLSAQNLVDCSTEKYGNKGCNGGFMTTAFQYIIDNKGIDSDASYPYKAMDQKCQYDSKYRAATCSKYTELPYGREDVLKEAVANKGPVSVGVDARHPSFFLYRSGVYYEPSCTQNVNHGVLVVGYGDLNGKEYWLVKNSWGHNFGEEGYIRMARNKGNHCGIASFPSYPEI

Target: Recombinant human cathepsin S (CatS) (Homo sapiens, UniProt P25774)
Test: biochemical

Structure (SMILES)	IC50
CS(=O)(=O)N1CCc2c(c(-c3ccc(C(F)(F)F)c(SCCN4CCC(F)CC4)c3)nn2CC(O)CN2CCC(NC(=O)CO)CC2)C1 (stereo not shown) [Example 195, N-[1-(3-{3-[3-{[2-(4-Fluoropiperidin-1-yl)ethyl]sulfanyl}-4-(trifluoromethyl)phenyl]-5-(methylsulfonyl)-4,5,6,7-tetrahydro-1H-pyrazolo[4,3-c]pyridin-1-yl}-2-hydroxypropyl)piperidin-4-yl]-2-hydroxyacetamide]	60 nM
CS(=O)(=O)N1CCc2c(c(-c3ccc(C(F)(F)F)c(SCCN4CC5CCCC5C4)c3)nn2C[C@@H](O)CN2CCOCC2)C1 (stereo partly drawn) [Example 224, (2S)-1-{3-[3-{[2-(Hexahydrocyclopenta[c]pyrrol-2(1H)-yl)ethyl]sulfanyl}-4-(trifluoromethyl)phenyl]-5-(methylsulfonyl)-4,5,6,7-tetrahydro-1H-pyrazolo[4,3-c]pyridin-1-yl}-3-morpholin-4-ylpropan-2-ol]	380 nM
COC(=O)C(=O)N1CCc2c(c(-c3ccc(C(F)(F)F)c(SCCN4CCC(F)CC4)c3)nn2C[C@@H](O)CN2CCCCC2)C1 [Example 436, Methyl {3-[3-{[2-(4-fluoropiperidin-1-yl)ethyl]sulfanyl}-4-(trifluoromethyl)phenyl]-1-[(2S)-2-hydroxy-3-piperidin-1-ylpropyl]-1,4,6,7-tetrahydro-5H-pyrazolo[4,3-c]pyridin-5-yl}(oxo)acetate]	75 nM
CC(=O)N1CCc2c(c(-c3ccc(C(F)(F)F)c(SCC(=O)N4CCCC4)c3)nn2CC(O)CN2Cc3ccccc3C2)C1 (stereo not shown) [Example 339, 1-(5-Acetyl-3-{3-[(2-oxo-2-pyrrolidin-1-ylethyl)sulfanyl]-4-(trifluoromethyl)phenyl}-4,5,6,7-tetrahydro-1H-pyrazolo[4,3-c]pyridin-1-yl)-3-(1,3-dihydro-2H-isoindol-2-yl)propan-2-ol]	170 nM
CS(=O)(=O)N1CCc2c(c(-c3ccc(C(F)(F)F)c(SCCN4CC[C@H](F)C4)c3)nn2C[C@@H](O)CN2CC3CCCC3C2)C1 (stereo partly drawn) [Example 454, (2S)-1-{3-[3-({2-[(3S)-3-Fluoropyrrolidin-1-yl]ethyl}sulfanyl)-4-(trifluoromethyl)phenyl]-5-(methylsulfonyl)-4,5,6,7-tetrahydro-1H-pyrazolo[4,3-c]pyridin-1-yl}-3-(hexahydrocyclopenta[c]pyrrol-2(1H)-yl)propan-2-ol]	650 nM
CS(=O)(=O)N1CCc2c(c(-c3ccc(C(F)(F)F)c(SCCNC4CCCCC4)c3)nn2CCCN2CCCCC2)C1 [Example 340, N-[2-({5-[5-(Methylsulfonyl)-1-(3-piperidin-1-ylpropyl)-4,5,6,7-tetrahydro-1H-pyrazolo[4,3-c]pyridin-3-yl]-2-(trifluoromethyl)phenyl}sulfanyl)ethyl]cyclohexanamine]	360 nM
O=C(Nc1ccccc1)N1CCc2c(c(-c3ccc(C(F)(F)F)c(SCCN4CCC(F)CC4)c3)nn2C[C@@H](O)CN2CCCCC2)C1 [Example 604, 3-[3-{[2-(4-Fluoropiperidin-1-yl)ethyl]sulfanyl}-4-(trifluoromethyl)phenyl]-1-[(2S)-2-hydroxy-3-piperidin-1-ylpropyl]-N-phenyl-1,4,6,7-tetrahydro-5H-pyrazolo[4,3-c]pyridine-5-carboxamide]	130 nM
CS(=O)(=O)N1CCc2c(c(-c3ccc(C(F)(F)F)c(SCCN4CCOCC4)c3)nn2CC(O)CN2CCC(F)CC2)C1 (stereo not shown) [Example 177, 1-(4-Fluoropiperidin-1-yl)-3-[5-(methylsulfonyl)-3-{3-[(2-morpholin-4-ylethyl)sulfanyl]-4-(trifluoromethyl)phenyl}-4,5,6,7-tetrahydro-1H-pyrazolo[4,3-c]pyridin-1-yl]propan-2-ol]	550 nM
CS(=O)(=O)N1CCc2c(c(-c3ccc(C(F)(F)F)c(SCCN4CCSC4)c3)nn2CCCN2CCC(N3CCCC3=O)CC2)C1 [Example 41, 1-[1-(3-{5-Methanesulfonyl-3-[3-(2-thiazolidin-3-yl-ethylsulfanyl)-4-trifluoromethyl-phenyl]-4,5,6,7-tetrahydro-pyrazolo[4,3-c]pyridin-1-yl}-propyl)-piperidin-4-yl]-pyrrolidin-2-one]	320 nM
CN1CCC[C@H]1C(=O)N1CCc2c(c(-c3ccc(C(F)(F)F)c(SCCN4CCC(F)CC4)c3)nn2CC(O)CN2CCCCC2)C1 (stereo partly drawn) [Example 582, 1-{3-[3-{[2-(4-Fluoropiperidin-1-yl)ethyl]sulfanyl}-4-(trifluoromethyl)phenyl]-5-(1-methyl-L-prolyl)-4,5,6,7-tetrahydro-1H-pyrazolo[4,3-c]pyridin-1-yl}-3-piperidin-1-ylpropan-2-ol]	530 nM
O=C(CSc1cc(-c2nn(CC(O)CN3CCC4(CC3)OCCO4)c3c2CNCC3)ccc1C(F)(F)F)N1CCCC1 (stereo not shown) [Example 318, 1-(1,4-Dioxa-8-azaspiro[4.5]dec-8-yl)-3-(3-{3-[(2-oxo-2-pyrrolidin-1-ylethyl)sulfanyl]-4-(trifluoromethyl)phenyl}-4,5,6,7-tetrahydro-1H-pyrazolo[4,3-c]pyridin-1-yl)propan-2-ol]	1440 nM
CS(=O)(=O)NCCSc1cc(-c2nn(CC(O)CN3CCCCC3)c3c2CN(S(C)(=O)=O)CC3)ccc1C(F)(F)F (stereo not shown) [Example 366, N-[2-({5-[1-(2-Hydroxy-3-piperidin-1-ylpropyl)-5-(methylsulfonyl)-4,5,6,7-tetrahydro-1H-pyrazolo[4,3-c]pyridin-3-yl]-2-(trifluoromethyl)phenyl}sulfanyl)ethyl]methanesulfonamide]	550 nM
CS(=O)(=O)N1CCc2c(c(-c3ccc(C(F)(F)F)c(SCCN4CCCC4)c3)nn2CC(O)CN2CC[C@H](CO)C2)C1 (stereo partly drawn) [Example 350, 1-[(3S)-3-(Hydroxymethyl)pyrrolidin-1-yl]-3-[5-(methylsulfonyl)-3-{3-[(2-pyrrolidin-1-ylethyl)sulfanyl]-4-(trifluoromethyl)phenyl}-4,5,6,7-tetrahydro-1H-pyrazolo[4,3-c]pyridin-1-yl]propan-2-ol]	2320 nM
CS(=O)(=O)N1CCc2c(c(-c3ccc(C(F)(F)F)c(SCC(=O)NCCOc4ccccc4)c3)nn2CC(O)CN2CCC(N3CCCC3=O)CC2)C1 (stereo not shown) [Example 67, 2-[5-(1-{2-Hydroxy-3-[4-(2-oxo-pyrrolidin-1-yl)-piperidin-1-yl]-propyl}-5-methanesulfonyl-4,5,6,7-tetrahydro-1H-pyrazolo[4,3-c]pyridin-3-yl)-2-trifluoromethyl-phenylsulfanyl]-N-(2-phenoxy-ethyl)-acetamide]	5550 nM
CS(=O)(=O)N1CCc2c(c(-c3ccc(C(F)(F)F)c(SCCN4CCCCC4)c3)nn2CC(O)CN2CCN(c3ccccc3C#N)CC2)C1 (stereo not shown) [Example 156, 2-(4-{2-Hydroxy-3-[5-(methylsulfonyl)-3-{3-[(2-piperidin-1-ylethyl)sulfanyl]-4-(trifluoromethyl)phenyl}-4,5,6,7-tetrahydro-1H-pyrazolo[4,3-c]pyridin-1-yl]propyl}piperazin-1-yl)benzonitrile]	10 nM

Second part, the molecule after the results:

IC50	Structure (SMILES)
2340 nM	CS(=O)(=O)N1CCc2c(c(-c3ccc(C(F)(F)F)c(SCCNCCc4c[nH]cn4)c3)nn2CCCN2CCC(N3CCCC3=O)CC2)C1 [Example 719, 1-(1-{3-[3-{3-[(2-{[2-(1H-Imidazol-4-yl)ethyl]amino}ethyl)sulfanyl]-4-(trifluoromethyl)phenyl}-5-(methylsulfonyl)-4,5,6,7-tetrahydro-1H-pyrazolo[4,3-c]pyridin-1-yl]propyl}piperidin-4-yl)pyrrolidin-2-one]
1280 nM	CS(=O)(=O)N1CCc2c(c(-c3ccc(C(F)(F)F)c(SCCN4CCC(F)CC4)c3)nn2C[C@@H](O)CN2CCCC3CCCCC32)C1 (stereo partly drawn) [Example 648, (2S)-1-{3-[3-{[2-(4-Fluoropiperidin-1-yl)ethyl]sulfanyl}-4-(trifluoromethyl)phenyl]-5-(methylsulfonyl)-4,5,6,7-tetrahydro-1H-pyrazolo[4,3-c]pyridin-1-yl}-3-(octahydroquinolin-1(2H)-yl)propan-2-ol]
20 nM	CS(=O)(=O)N1CCc2c(c(-c3ccc(C(F)(F)F)c(SCCN4CCC(F)CC4)c3)nn2CC(O)CN2CCN(c3ccccc3)CC2)C1 (stereo not shown) [Example 729, 1-{3-[3-{[2-(4-Fluoropiperidin-1-yl)ethyl]sulfanyl}-4-(trifluoromethyl)phenyl]-5-(methylsulfonyl)-4,5,6,7-tetrahydro-1H-pyrazolo[4,3-c]pyridin-1-yl}-3-(4-phenylpiperazin-1-yl)propan-2-ol]
120 nM	CS(=O)(=O)N1CCc2c(c(-c3ccc(C(F)(F)F)c(SCCNS(=O)(=O)c4ccccc4)c3)nn2CC(O)CN2CCC(N3CCCC3=O)CC2)C1 (stereo not shown) [Example 875, N-[2-({5-[1-{2-Hydroxy-3-[4-(2-oxopyrrolidin-1-yl)piperidin-1-yl]propyl}-5-(methylsulfonyl)-4,5,6,7-tetrahydro-1H-pyrazolo[4,3-c]pyridin-3-yl]-2-(trifluoromethyl)phenyl}sulfanyl)ethyl]benzenesulfonamide]
80 nM	CS(=O)(=O)N1CCc2c(c(-c3ccc(C(F)(F)F)c(SCCN4CCCCC4)c3)nn2CC(O)CN2CCC(c3nnnn3Cc3ccccc3)CC2)C1 (stereo not shown) [Example 879, 1-[5-(Methylsulfonyl)-3-{3-[(2-piperidin-1-ylethyl)sulfanyl]-4-(trifluoromethyl)phenyl}-4,5,6,7-tetrahydro-1H-pyrazolo[4,3-c]pyridin-1-yl]-3-{4-[1-(phenylmethyl)-1H-tetrazol-5-yl]piperidin-1-yl}propan-2-ol]
330 nM	CS(=O)(=O)NC1CCN(CC(O)Cn2nc(-c3ccc(C(F)(F)F)c(SCCN4CCCC(CO)C4)c3)c3c2CCN(S(C)(=O)=O)C3)CC1 (stereo not shown) [Example 835, N-[1-(2-Hydroxy-3-{3-[3-({2-[3-(hydroxymethyl)piperidin-1-yl]ethyl}sulfanyl)-4-(trifluoromethyl)phenyl]-5-(methylsulfonyl)-4,5,6,7-tetrahydro-1H-pyrazolo[4,3-c]pyridin-1-yl}propyl)piperidin-4-yl]methanesulfonamide]
45 nM	COc1ccccc1N1CCN(CC(O)Cn2nc(-c3ccc(C(F)(F)F)c(SCCN4CCCCC4)c3)c3c2CCN(S(C)(=O)=O)C3)CC1 (stereo not shown) [Example 776, 1-{4-[2-(Methyloxy)phenyl]piperazin-1-yl}-3-[5-(methylsulfonyl)-3-{3-[(2-piperidin-1-ylethyl)sulfanyl]-4-(trifluoromethyl)phenyl}-4,5,6,7-tetrahydro-1H-pyrazolo[4,3-c]pyridin-1-yl]propan-2-ol]
